{"sequences": {"note": "Amino acid sequences for entries named in this document (tags omitted). A change or cut given only in a name is not applied to a line headed by its entry.", "UniProt Q00526": "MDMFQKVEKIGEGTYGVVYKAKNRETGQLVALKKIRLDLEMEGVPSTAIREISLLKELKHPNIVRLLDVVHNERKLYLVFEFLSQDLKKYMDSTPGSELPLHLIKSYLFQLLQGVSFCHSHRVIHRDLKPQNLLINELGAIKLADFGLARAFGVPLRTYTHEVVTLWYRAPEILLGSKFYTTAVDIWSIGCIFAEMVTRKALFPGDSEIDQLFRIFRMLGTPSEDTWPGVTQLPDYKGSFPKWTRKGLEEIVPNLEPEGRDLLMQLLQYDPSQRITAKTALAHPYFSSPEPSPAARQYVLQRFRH", "UniProt Q86Z02": "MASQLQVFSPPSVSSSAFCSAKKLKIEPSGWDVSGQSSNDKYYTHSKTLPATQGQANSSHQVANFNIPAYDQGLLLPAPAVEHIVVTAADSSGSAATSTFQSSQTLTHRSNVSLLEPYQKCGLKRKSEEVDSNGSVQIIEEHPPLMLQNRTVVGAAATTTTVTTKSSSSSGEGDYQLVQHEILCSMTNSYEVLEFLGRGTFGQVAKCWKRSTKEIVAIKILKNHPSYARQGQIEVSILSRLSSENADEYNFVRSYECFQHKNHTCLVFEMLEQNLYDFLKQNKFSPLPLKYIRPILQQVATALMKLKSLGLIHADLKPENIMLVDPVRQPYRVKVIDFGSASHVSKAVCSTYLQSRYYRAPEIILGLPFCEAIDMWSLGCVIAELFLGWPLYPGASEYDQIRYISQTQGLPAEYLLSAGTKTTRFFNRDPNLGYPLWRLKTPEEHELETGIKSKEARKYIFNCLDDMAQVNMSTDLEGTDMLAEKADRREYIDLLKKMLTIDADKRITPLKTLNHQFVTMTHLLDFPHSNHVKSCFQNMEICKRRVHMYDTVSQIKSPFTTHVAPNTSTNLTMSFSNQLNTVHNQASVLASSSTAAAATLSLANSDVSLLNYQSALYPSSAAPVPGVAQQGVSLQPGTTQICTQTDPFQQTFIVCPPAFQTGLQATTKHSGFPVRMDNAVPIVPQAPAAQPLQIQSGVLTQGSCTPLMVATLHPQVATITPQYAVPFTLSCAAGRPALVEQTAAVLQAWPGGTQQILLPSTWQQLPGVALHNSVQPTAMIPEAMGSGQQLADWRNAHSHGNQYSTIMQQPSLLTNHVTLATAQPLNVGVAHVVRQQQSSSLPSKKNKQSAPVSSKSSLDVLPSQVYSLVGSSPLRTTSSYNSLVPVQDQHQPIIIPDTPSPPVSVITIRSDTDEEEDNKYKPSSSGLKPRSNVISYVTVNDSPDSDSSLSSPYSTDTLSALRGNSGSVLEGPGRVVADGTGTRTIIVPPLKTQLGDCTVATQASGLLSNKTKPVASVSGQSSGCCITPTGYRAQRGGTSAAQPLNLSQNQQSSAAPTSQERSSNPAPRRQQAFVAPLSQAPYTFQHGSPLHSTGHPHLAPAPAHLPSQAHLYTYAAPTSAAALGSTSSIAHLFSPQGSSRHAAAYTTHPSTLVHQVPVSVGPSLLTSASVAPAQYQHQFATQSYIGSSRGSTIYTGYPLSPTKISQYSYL", "UniProt Q9H2X6": "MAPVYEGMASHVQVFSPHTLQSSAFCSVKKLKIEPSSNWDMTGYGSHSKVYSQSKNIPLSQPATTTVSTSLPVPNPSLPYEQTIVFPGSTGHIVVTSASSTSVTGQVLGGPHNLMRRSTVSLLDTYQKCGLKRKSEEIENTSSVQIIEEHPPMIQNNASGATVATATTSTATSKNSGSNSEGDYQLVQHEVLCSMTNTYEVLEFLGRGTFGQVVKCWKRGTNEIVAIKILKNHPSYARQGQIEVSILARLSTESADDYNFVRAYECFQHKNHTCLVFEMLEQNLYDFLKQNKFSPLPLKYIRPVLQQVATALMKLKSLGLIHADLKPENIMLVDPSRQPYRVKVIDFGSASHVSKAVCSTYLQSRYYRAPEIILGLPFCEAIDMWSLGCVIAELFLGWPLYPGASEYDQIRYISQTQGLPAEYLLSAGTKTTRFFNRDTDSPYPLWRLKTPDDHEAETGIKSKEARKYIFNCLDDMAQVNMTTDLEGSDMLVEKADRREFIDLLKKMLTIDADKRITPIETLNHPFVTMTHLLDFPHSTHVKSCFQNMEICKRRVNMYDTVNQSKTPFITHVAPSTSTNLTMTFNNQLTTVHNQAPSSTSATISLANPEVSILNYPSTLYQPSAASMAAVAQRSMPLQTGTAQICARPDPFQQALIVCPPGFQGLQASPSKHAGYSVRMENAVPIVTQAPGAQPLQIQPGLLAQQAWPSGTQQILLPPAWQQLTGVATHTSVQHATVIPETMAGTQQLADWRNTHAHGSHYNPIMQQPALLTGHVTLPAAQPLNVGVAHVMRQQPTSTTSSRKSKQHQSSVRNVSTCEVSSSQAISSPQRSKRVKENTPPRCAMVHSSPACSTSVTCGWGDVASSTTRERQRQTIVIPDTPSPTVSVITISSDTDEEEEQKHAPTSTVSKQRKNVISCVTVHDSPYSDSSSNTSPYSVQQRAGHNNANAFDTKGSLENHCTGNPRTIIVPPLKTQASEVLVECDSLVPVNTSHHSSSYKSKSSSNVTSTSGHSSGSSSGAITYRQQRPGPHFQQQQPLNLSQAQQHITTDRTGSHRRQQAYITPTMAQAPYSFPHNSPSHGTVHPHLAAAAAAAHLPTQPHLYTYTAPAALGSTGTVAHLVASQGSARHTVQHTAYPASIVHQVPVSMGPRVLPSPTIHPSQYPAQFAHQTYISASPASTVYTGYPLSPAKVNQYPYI", "UniProt O14920": "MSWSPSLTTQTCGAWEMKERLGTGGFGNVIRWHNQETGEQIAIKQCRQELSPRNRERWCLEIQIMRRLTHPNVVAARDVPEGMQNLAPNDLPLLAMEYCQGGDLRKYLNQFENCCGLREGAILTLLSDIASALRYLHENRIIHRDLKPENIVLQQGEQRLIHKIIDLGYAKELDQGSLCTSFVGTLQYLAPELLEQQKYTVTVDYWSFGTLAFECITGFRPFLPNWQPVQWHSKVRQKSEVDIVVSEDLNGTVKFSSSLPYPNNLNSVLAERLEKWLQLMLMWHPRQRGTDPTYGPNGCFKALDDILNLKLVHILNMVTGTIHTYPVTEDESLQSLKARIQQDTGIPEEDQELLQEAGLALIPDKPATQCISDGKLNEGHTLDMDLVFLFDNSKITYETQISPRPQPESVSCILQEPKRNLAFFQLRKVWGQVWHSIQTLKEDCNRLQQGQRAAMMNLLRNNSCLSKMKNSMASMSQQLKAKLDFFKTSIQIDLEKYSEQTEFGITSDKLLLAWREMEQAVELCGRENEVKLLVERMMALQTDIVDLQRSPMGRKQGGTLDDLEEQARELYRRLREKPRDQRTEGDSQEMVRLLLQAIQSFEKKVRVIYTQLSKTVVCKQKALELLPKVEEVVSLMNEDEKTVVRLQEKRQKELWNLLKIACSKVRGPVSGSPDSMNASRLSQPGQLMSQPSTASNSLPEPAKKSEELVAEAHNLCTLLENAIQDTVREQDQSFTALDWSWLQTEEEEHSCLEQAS", "UniProt Q9P0L2": "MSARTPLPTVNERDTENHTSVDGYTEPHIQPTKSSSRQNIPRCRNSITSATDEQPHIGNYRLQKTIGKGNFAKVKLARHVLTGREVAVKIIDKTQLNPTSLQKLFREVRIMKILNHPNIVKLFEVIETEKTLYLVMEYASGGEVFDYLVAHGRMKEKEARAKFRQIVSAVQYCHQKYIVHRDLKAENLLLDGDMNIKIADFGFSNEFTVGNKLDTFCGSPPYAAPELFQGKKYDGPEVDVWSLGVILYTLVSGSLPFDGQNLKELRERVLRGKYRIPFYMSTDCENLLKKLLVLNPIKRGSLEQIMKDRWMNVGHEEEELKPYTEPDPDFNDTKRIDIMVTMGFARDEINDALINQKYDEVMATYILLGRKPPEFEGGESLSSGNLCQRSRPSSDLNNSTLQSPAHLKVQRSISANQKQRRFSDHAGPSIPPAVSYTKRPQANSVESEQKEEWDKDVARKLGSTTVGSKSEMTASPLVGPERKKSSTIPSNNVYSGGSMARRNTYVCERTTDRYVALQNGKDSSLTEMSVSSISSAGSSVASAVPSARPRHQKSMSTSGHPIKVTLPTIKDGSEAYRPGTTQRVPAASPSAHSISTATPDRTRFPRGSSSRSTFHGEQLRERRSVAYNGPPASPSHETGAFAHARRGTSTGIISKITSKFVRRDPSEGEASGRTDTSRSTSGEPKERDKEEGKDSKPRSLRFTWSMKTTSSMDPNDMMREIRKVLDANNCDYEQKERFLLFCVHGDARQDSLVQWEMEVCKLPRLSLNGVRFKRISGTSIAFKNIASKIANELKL", "UniProt Q8N4C8": "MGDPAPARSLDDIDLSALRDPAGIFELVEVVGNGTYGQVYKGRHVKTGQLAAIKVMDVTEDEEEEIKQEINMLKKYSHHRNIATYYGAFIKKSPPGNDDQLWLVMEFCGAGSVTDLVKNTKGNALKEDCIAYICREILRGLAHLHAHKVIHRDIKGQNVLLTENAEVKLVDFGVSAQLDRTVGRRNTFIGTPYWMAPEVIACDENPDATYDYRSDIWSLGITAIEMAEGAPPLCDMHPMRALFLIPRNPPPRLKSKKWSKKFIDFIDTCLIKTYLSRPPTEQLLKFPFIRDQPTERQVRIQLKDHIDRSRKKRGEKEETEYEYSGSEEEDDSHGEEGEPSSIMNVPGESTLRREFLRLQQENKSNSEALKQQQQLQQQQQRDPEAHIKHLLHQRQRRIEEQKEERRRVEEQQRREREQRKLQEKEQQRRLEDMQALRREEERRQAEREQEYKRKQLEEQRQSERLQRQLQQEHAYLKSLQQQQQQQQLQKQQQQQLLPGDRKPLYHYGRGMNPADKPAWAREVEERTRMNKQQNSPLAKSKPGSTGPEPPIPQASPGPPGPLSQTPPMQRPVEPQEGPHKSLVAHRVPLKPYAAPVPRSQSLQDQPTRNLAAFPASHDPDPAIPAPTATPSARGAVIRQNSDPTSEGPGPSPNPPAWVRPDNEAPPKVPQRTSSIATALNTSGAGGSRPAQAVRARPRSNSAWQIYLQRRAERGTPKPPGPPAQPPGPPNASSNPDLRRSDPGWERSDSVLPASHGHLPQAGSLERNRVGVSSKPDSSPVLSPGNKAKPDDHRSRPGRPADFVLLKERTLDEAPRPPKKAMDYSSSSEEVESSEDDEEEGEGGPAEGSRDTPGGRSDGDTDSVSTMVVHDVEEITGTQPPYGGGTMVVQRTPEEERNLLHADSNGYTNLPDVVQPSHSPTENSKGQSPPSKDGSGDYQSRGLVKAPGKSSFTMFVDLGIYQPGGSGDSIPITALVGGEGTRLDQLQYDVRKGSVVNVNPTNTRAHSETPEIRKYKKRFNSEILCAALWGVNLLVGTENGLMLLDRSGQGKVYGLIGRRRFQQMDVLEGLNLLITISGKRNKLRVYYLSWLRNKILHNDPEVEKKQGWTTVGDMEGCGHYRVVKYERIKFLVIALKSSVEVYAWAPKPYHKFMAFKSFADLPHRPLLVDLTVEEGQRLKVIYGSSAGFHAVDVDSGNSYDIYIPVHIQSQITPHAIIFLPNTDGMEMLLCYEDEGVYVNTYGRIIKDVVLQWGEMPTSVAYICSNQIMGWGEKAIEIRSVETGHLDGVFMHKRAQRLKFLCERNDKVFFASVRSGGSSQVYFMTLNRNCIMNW"}, "source": "patent US10087225B2", "about": "“Formulation of MK2 inhibitor peptides” (MOERAE MATRIX, INC., priority 2015, dated 2018)", "experiment_in_all_cases": "Kinase Profiling Assay", "type_in_all_cases": "biochemical", "conditions_in_all_cases": "100 μM", "key": {"CDK2/cyclinA(h)": {"target": "CDK2/cyclinA(h) (Homo sapiens, UniProt P24941)"}, "CDK2/cyclinE(h)": {"target": "CDK2/cyclinE(h) (Homo sapiens, UniProt P24941)"}, "CDK3/cyclinE(h)": {"target": "CDK3/cyclinE(h) (Homo sapiens, UniProt Q00526)"}, "EphA3(h)": {"target": "T1, EphA3(h) (Homo sapiens, UniProt P29320)", "T1 sequence (P29320 21-983)": "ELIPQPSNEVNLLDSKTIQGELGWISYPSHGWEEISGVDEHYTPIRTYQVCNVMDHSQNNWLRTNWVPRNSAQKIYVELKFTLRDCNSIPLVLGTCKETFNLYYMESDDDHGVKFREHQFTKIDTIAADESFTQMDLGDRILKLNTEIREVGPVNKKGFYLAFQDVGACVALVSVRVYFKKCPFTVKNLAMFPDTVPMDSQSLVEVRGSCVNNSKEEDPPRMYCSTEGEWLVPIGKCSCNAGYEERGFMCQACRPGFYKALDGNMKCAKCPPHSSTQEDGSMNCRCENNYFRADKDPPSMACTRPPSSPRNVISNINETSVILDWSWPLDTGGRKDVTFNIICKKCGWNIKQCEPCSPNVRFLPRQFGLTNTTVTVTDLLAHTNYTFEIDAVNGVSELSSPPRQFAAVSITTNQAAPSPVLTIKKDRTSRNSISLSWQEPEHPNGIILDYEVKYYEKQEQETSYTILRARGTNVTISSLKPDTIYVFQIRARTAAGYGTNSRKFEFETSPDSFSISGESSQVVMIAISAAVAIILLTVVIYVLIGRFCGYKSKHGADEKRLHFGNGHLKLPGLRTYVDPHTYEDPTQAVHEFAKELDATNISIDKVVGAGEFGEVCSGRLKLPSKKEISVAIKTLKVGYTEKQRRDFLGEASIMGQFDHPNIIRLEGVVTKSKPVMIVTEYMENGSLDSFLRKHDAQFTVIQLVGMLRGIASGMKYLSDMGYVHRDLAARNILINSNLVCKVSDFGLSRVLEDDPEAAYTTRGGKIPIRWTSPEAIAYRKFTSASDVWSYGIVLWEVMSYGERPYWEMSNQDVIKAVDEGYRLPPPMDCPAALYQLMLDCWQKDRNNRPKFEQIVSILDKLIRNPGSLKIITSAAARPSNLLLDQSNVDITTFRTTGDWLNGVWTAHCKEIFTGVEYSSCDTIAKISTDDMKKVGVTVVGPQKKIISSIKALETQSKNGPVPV"}, "FGFR2(N549H)(h)": {"target": "FGFR2(N549H)(h) (Homo sapiens, UniProt P21802, N549H)"}, "HIPK1(h)": {"target": "HIPK1(h) (Homo sapiens, UniProt Q86Z02)"}, "HIPK2(h)": {"target": "HIPK2(h) (Homo sapiens, UniProt Q9H2X6)"}, "IKKβ(h)": {"target": "IKKβ(h) (Homo sapiens, UniProt O14920)"}, "MAPK2(h)": {"target": "MAPK2(h) (Homo sapiens, UniProt P28482)"}, "MARK1(h)": {"target": "MARK1(h) (Homo sapiens, UniProt Q9P0L2)"}, "MINK(h)": {"target": "MINK(h) (Homo sapiens, UniProt Q8N4C8)"}, "MST2(h)": {"target": "T2, MST2(h) (Homo sapiens, UniProt Q13188)", "T2 sequence (Q13188 1-491)": "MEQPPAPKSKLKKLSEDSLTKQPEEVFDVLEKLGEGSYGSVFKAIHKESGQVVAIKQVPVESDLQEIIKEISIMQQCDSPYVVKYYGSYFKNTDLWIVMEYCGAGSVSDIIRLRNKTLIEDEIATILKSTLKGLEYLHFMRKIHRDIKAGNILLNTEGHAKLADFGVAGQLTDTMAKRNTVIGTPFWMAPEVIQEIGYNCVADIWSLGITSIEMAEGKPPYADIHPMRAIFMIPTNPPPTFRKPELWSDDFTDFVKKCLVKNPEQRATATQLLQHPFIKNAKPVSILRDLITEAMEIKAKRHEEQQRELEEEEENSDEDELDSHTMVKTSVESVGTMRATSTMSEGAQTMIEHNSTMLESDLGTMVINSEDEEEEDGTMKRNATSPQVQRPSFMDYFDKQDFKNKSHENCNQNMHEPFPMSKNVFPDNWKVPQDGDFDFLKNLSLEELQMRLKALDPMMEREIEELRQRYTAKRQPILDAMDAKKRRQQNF"}, "PrKX(h)": {"target": "T3, PrKX(h) (Homo sapiens, UniProt P51817)", "T3 sequence (P51817 1-358)": "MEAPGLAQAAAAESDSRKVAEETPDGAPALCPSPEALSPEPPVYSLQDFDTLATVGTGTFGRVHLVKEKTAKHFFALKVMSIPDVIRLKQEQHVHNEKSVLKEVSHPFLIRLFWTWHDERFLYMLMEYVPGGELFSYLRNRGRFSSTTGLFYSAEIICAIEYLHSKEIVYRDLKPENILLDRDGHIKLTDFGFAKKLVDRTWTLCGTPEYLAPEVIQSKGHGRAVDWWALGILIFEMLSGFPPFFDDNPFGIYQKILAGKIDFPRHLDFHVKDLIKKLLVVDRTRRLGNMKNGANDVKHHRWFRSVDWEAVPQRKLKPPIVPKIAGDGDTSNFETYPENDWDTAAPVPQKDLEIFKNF"}}, "data": [{"sequence": "YARAAARQARAKALNRQLGVA (Mammalian) [MMI-0200]", "values": [{"measurement": "% activity", "setting": "CDK2/cyclinA(h)", "result": 114, "unit": "%"}, {"measurement": "% activity", "setting": "CDK2/cyclinE(h)", "result": 112, "unit": "%"}, {"measurement": "% activity", "setting": "CDK3/cyclinE(h)", "result": 104, "unit": "%"}, {"measurement": "% activity", "setting": "EphA3(h)", "result": 117, "unit": "%"}, {"measurement": "% activity", "setting": "FGFR2(N549H)(h)", "result": 104, "unit": "%"}, {"measurement": "% activity", "setting": "HIPK1(h)", "result": 115, "unit": "%"}, {"measurement": "% activity", "setting": "HIPK2(h)", "result": 102, "unit": "%"}, {"measurement": "% activity", "setting": "IKKβ(h)", "result": 109, "unit": "%"}, {"measurement": "% activity", "setting": "MAPK2(h)", "result": 105, "unit": "%"}, {"measurement": "% activity", "setting": "MARK1(h)", "result": 102, "unit": "%"}, {"measurement": "% activity", "setting": "MINK(h)", "result": 103, "unit": "%"}, {"measurement": "% activity", "setting": "MST2(h)", "result": 104, "unit": "%"}, {"measurement": "% activity", "setting": "PrKX(h)", "result": 112, "unit": "%"}]}]}
